Experimental data from patent US20160016998A1, “HIGH-AFFINITY MATRIPTASE INHIBITORS” (MERCK PATENT GMBH, priority 2013, published 2016).

Target: T1, matriptase (Homo sapiens, UniProt Q9Y5Y6)
T1 construct: made in house
T1 sequence (Q9Y5Y6 615-855 limits assumed): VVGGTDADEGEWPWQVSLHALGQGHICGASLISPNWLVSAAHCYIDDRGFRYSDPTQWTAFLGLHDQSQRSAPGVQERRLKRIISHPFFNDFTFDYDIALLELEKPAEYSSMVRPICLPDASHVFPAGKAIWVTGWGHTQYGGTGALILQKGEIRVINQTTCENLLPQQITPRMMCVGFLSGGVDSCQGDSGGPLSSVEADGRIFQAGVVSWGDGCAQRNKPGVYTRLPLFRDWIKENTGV
Test: Matriptase enzyme inhibition assay with chromogenic substrate Boc-QAR-pNA
Type: biochemical
Settings: for ΔBG(x) − ΔBG(SFTI-1[1, 14]): difference in free energy of binding/dissociation, ΔBG = −RTlnKi; for ΔBG(x) − ΔBG(SFTI-1[1, 14]) / Relative Activity: pH 7.6 (Table 1); for matriptase affinity / inhibitor potency in words: enzyme inhibition assays, comparator as worded; for Relative Activity: ratio Ki of compound / Ki of SFTI-1[1,14]
Experimental: Recombinant production, autocatalytic activation and purification of matriptase were conducted as previously described. Bovine trypsin was purchased from Sigma-Aldrich. Active-site titration and determination of Michaelis-Menten constants KM for the chromogenic substrate Boc-QAR-pNA was performed as reported earlier.
All experiments were performed in triplicate. […] Slopes of the initial reaction velocities (steady-state) were calculated and normalized to the data of the uninhibited enzymatic hydrolysis of Boc-QAR-pNA. The determined v/v0 values were plotted against the concentration of the inhibitor.
Errors were calculated through propagation of errors (compare Tischler et al.).[17]

CC[C@H](C)[C@@H]1NC(=O)[C@@H]2CCCN2C(=O)[C@@H]2CCCN2C(=O)[C@H]([C@@H](C)CC)NC(=O)[C@H](CO)NC(=O)[C@H](CCCCN)NC(=O)[C@H]([C@@H](C)O)NC(=O)[C@@H](NC(=O)[C@H](CCCNC(=N)N)NC(=O)CN)CSSC[C@@H](C(=O)N[C@H](C(=O)N2CCC[C@H]2C(=O)N[C@@H](CC(=O)O)C(=O)O)[C@@H](C)CC)NC1=O [Compound 21]
Ki: 319 ± 40 nM | ΔBG(x) − ΔBG(SFTI-1[1, 14]) (matriptase): 0.478 ± 0.096 kcal/mol | matriptase affinity / inhibitor potency in words (pH 7.6): beneficial effect | Relative Activity (matriptase): 0.45

CC[C@H](C)[C@@H]1NC(=O)[C@@H]2CCCN2C(=O)[C@@H]2CCCN2C(=O)[C@H]([C@@H](C)CC)NC(=O)[C@H](CO)NC(=O)[C@H](CCCCN)NC(=O)[C@H]([C@@H](C)O)NC(=O)[C@@H](NC(=O)[C@H](CCCNC(=N)N)NC(=O)CN)CSSC[C@@H](C(=O)N[C@@H](Cc2c[nH]cn2)C(=O)N2CCC[C@H]2C(=O)N[C@@H](CC(=O)O)C(=O)O)NC1=O [Compound 22]
Ki: 206 ± 27 nM | ΔBG(x) − ΔBG(SFTI-1[1, 14]) (matriptase): 0.717 ± 0.12 kcal/mol | matriptase affinity / inhibitor potency in words (pH 7.6): beneficial effect | difference of the free energies of binding/dissociation ΔBG between compound and SFTI-1[1,14] (matriptase, pH 7.6): about 3 kJ/mol | Relative Activity (matriptase): 0.29
